Molecular target: recombinant murine transferrin receptor 1 (murine) (UniProt Q62351)

A cellular FITC fluorescence of GL261 cells incubated with FITC-labeled NPs, flow cytometry, normalized to cells without treatment (cellular uptake) of 7% was found for “CGKRK fusion protein nanoparticles (CGKRK-linker-HFn) (designed binder)” in this work.

— publication PMC8965725
